Data on 23 compounds can be found in patent US9540377B2, “2,6,7,8 substituted purines as HDM2 inhibitors” (Merck Sharp & Dohme Corp., priority 2013, dated 2017).

Amino acid sequences for entries named in this document (tags omitted). Residues count along the entry.
UniProt Q00987, 17-125: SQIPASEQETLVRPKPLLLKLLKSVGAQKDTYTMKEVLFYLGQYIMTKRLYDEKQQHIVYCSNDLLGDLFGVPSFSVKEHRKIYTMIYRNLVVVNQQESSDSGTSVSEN

Structures are written as SMILES.

The first test has as its target HDM2 (truncated, residues 17 to 125, containing p53 binding surface) (Homo sapiens (Human), UniProt Q00987). The test is described as follows: HDM2 FRET assay (inhibition of binding of FITC labeled p53-site peptide to HDM2). As to conditions: Table 16. An excerpt:
(containing p53 binding surface, Science (1994) 265, 346-355), with N-terminal His and Thioredoxin tag was generated in pET32a expression vector and expressed in E. coli strain BL21(DE3)Rosetta. […] IC50 DETERMINATIONS: Dose-response curves were plotted from the inhibition data, from 10 point serial dilutions of inhibitory compounds. Concentration of compound was plotted against em520/Cem495 ratio signal. To generate IC50 values, the dose-response curves were fitted to a standard sigmoidal curve and IC50 values were derived by nonlinear regression analysis.
As to `C[C@@H]1[C@@H](C)OCCN1c1nc2nc(-c3n[nH]c(=O)o3)nc(-c3cccc(Cl)c3)c2n1C[C@H]1CC[C@H](C)CC1` (racemic) [Example 16.134, 5-{6-(3-chlorophenyl)-8-[(trans)-2,3-dimethylmorpholin-4-yl]-7-[(trans-4-methylcyclohexyl)methyl]-7H-purin-2-yl}-1,3,4-oxadiazol-2(3H)-one], the IC50 (in general, the concentration at which inhibition is half-maximal) was 11.1 nM. This lies in the double-digit nanomolar range.

As for `C[C@@H]1OCCN(c2nc3nc(-c4noc(=O)[nH]4)nc(-c4cccc(Cl)c4)c3n2C[C@H]2CC[C@H](C)CC2)[C@@H]1C` (racemic) [Example 16.100, 3-{6-(3-chlorophenyl)-8-[(cis)-2,3-dimethylmorpholin-4-yl]-7-[(trans-4-methylcyclohexyl)methyl]-7H-purin-2-yl}-1,2,4-oxadiazol-5(4H)-one], the IC50 was 51 nM.

Consider `COC(C)(C)C1CCCN1c1nc2nc(-c3noc(=O)[nH]3)nc(-c3cccc(Cl)c3)c2n1C[C@H]1CC[C@H](C)CC1` (single isomer, unassigned) [Example 16.66, 3-{6-(3-chlorophenyl)-8-[2-(1-methoxy-1-methylethyl)pyrrolidin-1-yl]-7-[(trans-4-methylcyclohexyl)methyl]-7H-purin-2-yl}-1,2,4-oxadiazol-5(4H)-one], for which the IC50 amounted to 1.24 nM.

Compound `C[C@H]1CC[C@H](Cn2c(N3CCO[C@H]4CCCC[C@H]43)nc3nc(-c4n[nH]c(=O)o4)nc(-c4cncc(Cl)c4)c32)CC1` (racemic) [Example 16.128, 5-{6-(5-chloropyridin-3-yl)-7-[(trans-4-methylcyclohexyl)methyl]-8-[(cis)-octahydro-4H-1,4-benzoxazin-4-yl]-7H-purin-2-yl}-1,3,4-oxadiazol-2(3H)-one] yielded an IC50 of 75.6 nM.

The compound `C[C@@H]1OCCN(c2nc3nc(-c4n[nH]c(=O)o4)nc(-c4cccc(Cl)c4)c3n2C[C@H]2CC[C@H](C)CC2)[C@@H]1C` (racemic) [Example 16.101, 5-{6-(3-chlorophenyl)-8-[(cis)-2,3-dimethylmorpholin-4-yl]-7-[(trans-4-methylcyclohexyl)methyl]-7H-purin-2-yl}-1,3,4-oxadiazol-2(3H)-one] came in with an IC50 of 41.3 nM.

The same test, now with this note: Table 23.
As to `C[C@H]1CC[C@H](Cn2c(C3OCCc4ccccc43)nc3nc(-c4noc(=O)[nH]4)nc(-c4cncc(Cl)c4)c32)CC1` (single isomer, unassigned) [Example 23.104, 3-{6-(5-chloropyridin-3-yl)-8-(3,4-dihydro-1H-isochromen-1-yl)-7-[(trans-4-methylcyclohexyl)methyl]-7H-purin-2-yl}-1,2,4-oxadiazol-5(4H)-one], the IC50 came out at 1.03 nM. That is a single-digit nanomolar value.

The compound `C[C@H]1CC[C@H](Cn2c(C3OCCc4ccccc43)nc3nc(-c4noc(=O)[nH]4)nc(-c4cncc(Cl)c4)c32)CC1` (single isomer, unassigned) [Example 23.105, 3-{6-(5-chloropyridin-3-yl)-8-(3,4-dihydro-1H-isochromen-1-yl)-7-[(trans-4-methylcyclohexyl)methyl]-7H-purin-2-yl}-1,2,4-oxadiazol-5(4H)-one] registered an IC50 of 2.16 nM.

In turn, `COC(c1ccccn1)c1nc2nc(-c3noc(=O)[nH]3)nc(-c3cccc(Cl)c3)c2n1C[C@H]1CC[C@H](C)CC1` (single isomer, unassigned) [Example 23.46, 3-{6-(3-chlorophenyl)-8-[methoxy(pyridin-2-yl)methyl]-7-[(trans-4-methylcyclohexyl)methyl]-7H-purin-2-yl}-1,2,4-oxadiazol-5(4H)-one] returned an IC50 of 8.27 nM.

For `COC(C)(c1ccccn1)c1nc2nc(-c3nc(=O)o[nH]3)nc(-c3cccc(Cl)c3)c2n1C[C@H]1CC[C@H](C)CC1` (single isomer, unassigned) [Example 23.52, 3-{6-(3-chlorophenyl)-8-[1-methoxy-1-(pyridin-2-yl)ethyl]-7-[(trans-4-methylcyclohexyl)methyl]-7H-purin-2-yl}-1,2,4-oxadiazol-5(2H)-one], the IC50 came to 6.22 nM.

With `COC(c1ccccc1)c1nc2nc(-c3noc(=O)[nH]3)nc(-c3cncc(Cl)c3)c2n1C[C@H]1CC[C@H](C)CC1` (single isomer, unassigned) [Example 23.47, 3-{6-(5-chloropyridin-3-yl)-8-[methoxy(phenyl)methyl]-7-[(trans-4-methylcyclohexyl)methyl]-7H-purin-2-yl}-1,2,4-oxadiazol-5(4H)-one], the IC50 came to 9.77 nM.

`COCC(C)(F)c1nc2nc(-c3noc(=O)[nH]3)nc(-c3cncc(Cl)c3)c2n1C[C@H]1CC[C@H](C)CC1` (mixture of isomers) [Example 23.108, 3-{6-(5-chloropyridin-3-yl)-8-(1-fluoro-2-methoxy-1-methylethyl)-7-[(trans-4-methylcyclohexyl)methyl]-7H-purin-2-yl}-1,2,4-oxadiazol-5(4H)-one] showed an IC50 of 3.77 nM. Compared with the last compound, the IC50 is about 2.6-fold lower.

For the compound `COC(C)(c1ccccc1C#N)c1nc2nc(-c3noc(=O)[nH]3)nc(-c3cncc(Cl)c3)c2n1C[C@H]1CC[C@H](C)CC1` (single isomer, unassigned) [Example 23.111, 2-{1-[6-(5-chloropyridin-3-yl)-7-[(trans-4-methylcyclohexyl)methyl]-2-(5-oxo-4,5-dihydro-1,2,4-oxadiazol-3-yl)-7H-purin-8-yl]-1-methoxyethyl}benzonitrile], the IC50 turned out to be 0.435 nM.

The compound `C[C@H]1CC[C@H](Cn2c(C(O)C3CCOCC3)nc3nc(-c4n[nH]c(=O)o4)nc(-c4cncc(Cl)c4)c32)CC1` (mixture of isomers) [Example 23.19, 5-{6-(5-chloropyridin-3-yl)-8-[hydroxy(tetrahydro-2H-pyran-4-yl)methyl]-7-[(trans-4-methylcyclohexyl)methyl]-7H-purin-2-yl}-1,3,4-oxadiazol-2(3H)-one] registered an IC50 of 104 nM. Against the preceding compound, the IC50 is about 240-fold higher.

Regarding `COC1(c2nc3nc(-c4noc(=O)[nH]4)nc(-c4cncc(Cl)c4)c3n2C[C@H]2CC[C@H](C)CC2)CCOCC1C` (single isomer, unassigned) [Example 23.97, 1,5-anhydro-3-C-[6-(5-chloropyridin-3-yl)-7-[(trans-4-methylcyclohexyl)methyl]-2-(5-oxo-4,5-dihydro-1,2,4-oxadiazol-3-yl)-7H-purin-8-yl]-2,4-dideoxy-2-methyl-3-O-methylpentitol], the IC50 was 11.3 nM.

With `COC(c1ccccn1)c1nc2nc(-c3noc(=O)[nH]3)nc(-c3cccc(Cl)c3)c2n1C[C@H]1CC[C@H](C)CC1` (single isomer, unassigned) [Example 23.45, 3-{6-(3-chlorophenyl)-8-[methoxy(pyridin-2-yl)methyl]-7-[(trans-4-methylcyclohexyl)methyl]-7H-purin-2-yl}-1,2,4-oxadiazol-5(4H)-one], the IC50 is 5.15 nM.

The compound `COC(C)(c1ccccn1)c1nc2nc(-c3nc(=O)o[nH]3)nc(-c3cccc(Cl)c3)c2n1C[C@H]1CC[C@H](C)CC1` (single isomer, unassigned) [Example 23.53, 3-{6-(3-chlorophenyl)-8-[1-methoxy-1-(pyridin-2-yl)ethyl]-7-[(trans-4-methylcyclohexyl)methyl]-7H-purin-2-yl}-1,2,4-oxadiazol-5(2H)-one] showed an IC50 of 3.34 nM.

Consider `COC(c1ccccc1)c1nc2nc(-c3noc(=O)[nH]3)nc(-c3cncc(Cl)c3)c2n1C[C@H]1CC[C@H](C)CC1` (single isomer, unassigned) [Example 23.48, 3-{6-(5-chloropyridin-3-yl)-8-[methoxy(phenyl)methyl]-7-[(trans-4-methylcyclohexyl)methyl]-7H-purin-2-yl}-1,2,4-oxadiazol-5(4H)-one], for which the IC50 was 4.22 nM.

`COC1(c2nc3nc(-c4noc(=O)[nH]4)nc(-c4cncc(Cl)c4)c3n2C[C@H]2CC[C@H](C)CC2)CCOCC1C` (single isomer, unassigned) [Example 23.96, 1,5-anhydro-3-C-[6-(5-chloropyridin-3-yl)-7-[(trans-4-methylcyclohexyl)methyl]-2-(5-oxo-4,5-dihydro-1,2,4-oxadiazol-3-yl)-7H-purin-8-yl]-2,4-dideoxy-2-methyl-3-O-methylpentitol] yielded an IC50 of 12.1 nM.

For the compound `COC(c1nc2nc(-c3noc(=O)[nH]3)nc(-c3cccc(Cl)c3)c2n1C[C@H]1CC[C@H](C)CC1)C1CCCCC1` (mixture of isomers) [Example 23.14, 3-{6-(3-chlorophenyl)-8-[cyclohexyl(methoxy)methyl]-7-[(trans-4-methylcyclohexyl)methyl]-7H-purin-2-yl}-1,2,4-oxadiazol-5(4H)-one], the half-inhibitory concentration (IC50) turned out to be 9.03 nM.

The compound `CC(F)(c1ccccc1F)c1nc2nc(C(=O)O)nc(-c3cncc(Cl)c3)c2n1C[C@H]1CC[C@H](C)CC1` (single isomer, unassigned) [Example 23.66, 6-(5-chloropyridin-3-yl)-8-[1-fluoro-1-(2-fluorophenyl)ethyl]-7-[(trans-4-methylcyclohexyl)methyl]-7H-purine-2-carboxylic acid] had a concentration for half-maximal inhibition (IC50) of 5.82 nM. This IC50 lies about 1.6-fold lower than the previous one.

In turn, `C[C@H]1CC[C@H](Cn2c(C(O)c3ccccc3)nc3nc(-c4noc(=O)[nH]4)nc(-c4cccc(Cl)c4)c32)CC1` (single isomer, unassigned) [Example 23.41, 3-{6-(3-chlorophenyl)-8-[hydroxy(phenyl)methyl]-7-[(trans-4-methylcyclohexyl)methyl]-7H-purin-2-yl}-1,2,4-oxadiazol-5(4H)-one] came in with an IC50 of 18.5 nM.

`COC(C)(c1csc(C)n1)c1nc2nc(-c3n[nH]c(=O)o3)nc(-c3cncc(Cl)c3)c2n1C[C@H]1CC[C@H](C)CC1` (mixture of isomers) [Example 23.51, 5-{6-(5-chloropyridin-3-yl)-8-[1-methoxy-1-(2-methyl-1,3-thiazol-4-yl)ethyl]-7-[(trans-4-methylcyclohexyl)methyl]-7H-purin-2-yl}-1,3,4-oxadiazol-2(3H)-one] registered an IC50 of 5.19 nM.

As for `COC(c1nc2nc(-c3noc(=O)[nH]3)nc(-c3cncc(Cl)c3)c2n1C[C@H]1CC[C@H](C)CC1)C1CCCCC1` (mixture of isomers) [Example 23.21, 3-{6-(5-chloropyridin-3-yl)-8-[cyclohexyl(methoxy)methyl]-7-[(trans-4-methylcyclohexyl)methyl]-7H-purin-2-yl}-1,2,4-oxadiazol-5(4H)-one], the IC50 worked out at 10.4 nM.
